AlphaSeq binding of Ab-14 light chain variants to a spike HR2 peptide

Target peptide (SARS-CoV-2 spike, HR2 region): PDVDLGDISGINAS

The variants keep the heavy chain, the linker and the frameworks of Ab-14 (scFv order VH, three GGGGS repeats, VL).
VH: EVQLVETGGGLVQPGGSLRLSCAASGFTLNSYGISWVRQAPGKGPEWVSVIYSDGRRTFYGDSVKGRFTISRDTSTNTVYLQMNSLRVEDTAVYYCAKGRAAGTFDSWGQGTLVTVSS
VL: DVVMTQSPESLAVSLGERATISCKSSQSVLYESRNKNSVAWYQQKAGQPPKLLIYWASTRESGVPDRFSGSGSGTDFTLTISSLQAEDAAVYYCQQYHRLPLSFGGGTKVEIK

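This is the validation round: designs drawn from the data on random variants, tested in the same kind of assay. Several design methods are mixed in this list. AlphaSeq pools MATa yeast showing the antibodies with MATalpha yeast showing the peptide. After mating in shaken culture at 30 °C for 16 h, diploids were selected and their barcode pairs sequenced. Read counts were normalised to the haploid input and turned into Kd by a linear fit to BCL2-family pairs of known affinity, for each replicate. There are six technical replicates.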

The whole VL of each variant is written out.
The read-out is the apparent dissociation constant on a log10 scale (nM): the lower, the stronger.
A mean of the replicates is given; it leaves out those without a signal.
An entry "nd" has no value in the source: the pair was not observed among the diploids in any replicate. This suggests poor binding but is not conclusive.
Of ten entries with the parent sequence, four were seen in most replicates (averages 0.34 to 2.37), three in one and three in none, so single entries are noisy.

VL	log10 Kd (nM), mean	replicates with signal
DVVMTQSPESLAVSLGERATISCKSEQSVLYESRNKNSVAWYQQKAGQPPKLLIYHASTRESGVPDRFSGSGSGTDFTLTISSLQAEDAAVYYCQQYHRLPLSFGGGTKVEIK	0.37	6/6
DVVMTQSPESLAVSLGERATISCGFSDSITEQIADANSIAWYQQKAGQPPKLLIYDRDARDVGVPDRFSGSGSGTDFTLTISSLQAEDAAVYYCQQYSRLPLIFGGGTKVEIK	1.24	6/6
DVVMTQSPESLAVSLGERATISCMISQLYNMGSFAINSVAWYQQKAGQPPKLLIYQASERNEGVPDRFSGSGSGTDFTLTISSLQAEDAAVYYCQQYDRLPLMFGGGTKVEIK	1.15	6/6
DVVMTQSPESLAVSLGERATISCSVTRYTDENGLKMSSVAWYQQKAGQPPKLLIYGAGNRMTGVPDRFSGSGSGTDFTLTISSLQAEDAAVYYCQQYHRLPLTFGGGTKVEIK	0.41	6/6
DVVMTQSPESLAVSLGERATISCKSSQSVLYESTAVNSVAWYQQKAGQPPKLLIYDASTRESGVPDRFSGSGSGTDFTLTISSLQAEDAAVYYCQQYSRLPLSFGGGTKVEIK	0.95	6/6
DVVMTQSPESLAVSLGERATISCQIFFNDFQYGIESQNIAWYQQKAGQPPKLLIYQGSMREVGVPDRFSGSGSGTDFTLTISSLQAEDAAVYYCQQYARLPLVFGGGTKVEIK	0.35	6/6
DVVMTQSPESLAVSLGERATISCKLQQSQLYGSRNKNSVAWYQQKAGQPPKLLIYEASTRLVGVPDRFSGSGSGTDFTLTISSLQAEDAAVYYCQAYHRLPLSFGGGTKVEIK	0.82	6/6
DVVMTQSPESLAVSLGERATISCKSSQSVLYESRNKNSVAWYQQKAGQPPKLLIYWASTRESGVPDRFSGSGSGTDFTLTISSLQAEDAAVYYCQQYHRQPLSFGGGTKVEIK	nd	0/6
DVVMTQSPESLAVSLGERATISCKQSQEKLYESRNKNSVAWYQQKAGQPPKLLIYDASTRESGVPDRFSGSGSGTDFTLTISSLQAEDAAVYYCQQYWRLPLSFGGGTKVEIK	0.70	6/6
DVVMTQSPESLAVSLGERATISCKLSQSVLYESRVKNNVAWYQQKAGQPPKLLIYEASTRESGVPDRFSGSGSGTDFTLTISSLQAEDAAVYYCQQYHRLPLSFGGGTKVEIK	-0.18	6/6
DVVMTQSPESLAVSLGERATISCKSSISYLYEDRNKNSVAWYQQKAGQPPKLLIYAASTRESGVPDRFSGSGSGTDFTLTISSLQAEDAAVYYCQQYHRLPLSFGGGTKVEIK	0.28	6/6
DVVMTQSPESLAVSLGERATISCKSGQGVLYESRNKNSVAWYQQKAGQPPKLLIYGALTRESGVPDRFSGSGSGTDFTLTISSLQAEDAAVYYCQQYRRLPLSFGGGTKVEIK	0.56	6/6
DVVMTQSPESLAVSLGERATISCHYENISEPMGRYDQNIAWYQQKAGQPPKLLIYNVSTREHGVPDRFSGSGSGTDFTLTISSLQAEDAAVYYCQQYFMLPLSFGGGTKVEIK	0.57	6/6
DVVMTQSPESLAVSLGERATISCKVLQSVNYEGRNKNSVAWYQQKAGQPPKLLIYHASTREDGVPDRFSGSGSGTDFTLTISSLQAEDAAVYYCQQYHRLPLSFGGGTKVEIK	0.23	6/6
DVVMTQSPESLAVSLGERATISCKLRLMTLTEGYFKNSVAWYQQKAGQPPKLLIYQASTRENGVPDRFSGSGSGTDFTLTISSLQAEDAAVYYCQSYHRLPLSFGGGTKVEIK	0.79	6/6
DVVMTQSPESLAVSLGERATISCFSSMSVMYESRNKASVAWYQQKAGQPPKLLIYQASTRESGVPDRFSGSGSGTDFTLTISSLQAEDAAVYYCQQYHRLPLSFGGGTKVEIK	2.05	4/6
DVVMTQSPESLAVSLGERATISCKSSPSVLMESRNMNSVAWYQQKAGQPPKLLIYWASTREQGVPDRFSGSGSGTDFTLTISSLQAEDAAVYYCQQYHRMPLSFGGGTKVEIK	1.37	6/6
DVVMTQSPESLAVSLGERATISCKISQMFTYESTWHNAIAWYQQKAGQPPKLLIYQTSEREEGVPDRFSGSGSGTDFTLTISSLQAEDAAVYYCQQYHRLPFSFGGGTKVEIK	1.07	6/6
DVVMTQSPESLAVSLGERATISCKLQMSWLYESRNKNSVAWYQQKAGQPPKLLIYNASTRESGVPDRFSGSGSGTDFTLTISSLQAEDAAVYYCQQYHRLPLSFGGGTKVEIK	-0.36	6/6
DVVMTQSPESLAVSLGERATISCKGSQSWLYESRNKNSVAWYQQKAGQPPKLLIYGGSTRESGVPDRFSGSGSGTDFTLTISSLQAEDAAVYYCQQYHRLPLSFGGGTKVEIK	-0.54	6/6
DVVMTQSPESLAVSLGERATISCKSSQSVLHEQWNKNDVAWYQQKAGQPPKLLIYWASTRESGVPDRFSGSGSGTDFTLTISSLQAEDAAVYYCQQYHRTPLSFGGGTKVEIK	3.02	1/6

The opening 3 entries, copied out:

VL,"log10 Kd (nM), mean",replicates with signal
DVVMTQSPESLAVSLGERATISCKSEQSVLYESRNKNSVAWYQQKAGQPPKLLIYHASTRESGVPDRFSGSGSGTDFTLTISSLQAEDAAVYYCQQYHRLPLSFGGGTKVEIK,0.37,6/6
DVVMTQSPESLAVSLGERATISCGFSDSITEQIADANSIAWYQQKAGQPPKLLIYDRDARDVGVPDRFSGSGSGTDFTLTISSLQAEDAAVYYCQQYSRLPLIFGGGTKVEIK,1.24,6/6
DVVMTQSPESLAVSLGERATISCMISQLYNMGSFAINSVAWYQQKAGQPPKLLIYQASERNEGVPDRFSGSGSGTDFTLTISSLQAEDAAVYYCQQYDRLPLMFGGGTKVEIK,1.15,6/6

In the paper, a design with two or fewer of six values counts as a poor binder.
Three control strains display no target. For all light chain designs, 4% of the pairings with them gave a signal, with a median of 2.64 and one signal in twenty below 1.59, so weak values seen in few replicates may be background.
The range of this assay differs from that of the first round, and the authors advise against merging the two.

From the AlphaSeq antibody data of Li et al. 2023 (doi:10.1038/s41467-023-39022-2), copy in the FLAb collection.